A value given as a limit tells only on which side of the number the result lay.

This assay is described as follows: Anti-cancer activity against human MEC-1 cells incubated for 24 hrs by WST assay. Particulars: MEC1, 24 h. Format: functional, cell-based.

What is called IC50 is the concentration needed to halve the response being measured. Low readings indicate inhibition by little substance, high ones a need for much substance. As for `CC[C@H](C)[C@H](NC(=O)CN)C(=O)NCC(=O)N[C@@H](C)C(=O)N[C@H](C(=O)N[C@@H](CC(C)C)C(=O)N[C@@H](CCCCN)C(=O)N[C@H](C(=O)N[C@@H](CC(C)C)C(=O)N[C@H](C(=O)N[C@H](C(=O)NCC(=O)N[C@@H](CC(C)C)C(=O)N1CCC[C@H]1C(=O)N[C@@H](C)C(=O)N[C@@H](CC(C)C)C(=O)N[C@H](C(=O)N[C@@H](CO)C(=O)N[C@@H](Cc1c[nH]c2ccccc12)C(=O)N[C@H](C(=O)N[C@@H](CCCCN)C(=O)N[C@@H](CCCNC(=N)N)C(=O)N[C@@H](CCCCN)C(=O)N[C@@H](CCCNC(=N)N)C(=O)N[C@@H](CCC(N)=O)C(=O)N[C@@H](CCC(N)=O)C(N)=O)[C@@H](C)CC)[C@@H](C)CC)[C@@H](C)O)[C@@H](C)O)C(C)C)C(C)C` [MELITTIN], the half-maximal inhibitory concentration (IC50) is ≤ 5 µM.
